Drawing on US5869449A, “38-decarboxy-38-hydroxymethyl derivatives of teiocoplanin antibiotics and a process for preparing them” (Gruppo Lepetit S.P.A., priority 1990, dated 1999), this text covers pKMCS for one substance.

A short description of the series: Acid-base titration (pK MCS). The conditions noted are these: methyl cellosolve (MCS) H2O 4/1, excess 0.01M HCl, titrated with 0.01N NaOH; one basic ionizable function. It is filed as physicochemical.

“38-Decarboxy-38-hydroxymethyl teicoplanin A2, component 2” showed a pKMCS of 6.9.
